Data: patent publication US10266537B2, “3-acetylenyl-pyrazole-pyrimidine derivative, and preparation method therefor and uses thereof” (Si Chuan University, priority 2015, dated 2019)

Protein sequences, listed by entry. Tags and fused reporters are not part of them. Lines headed by an entry give the natural chain unless they say otherwise; changes in a name come on top.
UniProt P12931: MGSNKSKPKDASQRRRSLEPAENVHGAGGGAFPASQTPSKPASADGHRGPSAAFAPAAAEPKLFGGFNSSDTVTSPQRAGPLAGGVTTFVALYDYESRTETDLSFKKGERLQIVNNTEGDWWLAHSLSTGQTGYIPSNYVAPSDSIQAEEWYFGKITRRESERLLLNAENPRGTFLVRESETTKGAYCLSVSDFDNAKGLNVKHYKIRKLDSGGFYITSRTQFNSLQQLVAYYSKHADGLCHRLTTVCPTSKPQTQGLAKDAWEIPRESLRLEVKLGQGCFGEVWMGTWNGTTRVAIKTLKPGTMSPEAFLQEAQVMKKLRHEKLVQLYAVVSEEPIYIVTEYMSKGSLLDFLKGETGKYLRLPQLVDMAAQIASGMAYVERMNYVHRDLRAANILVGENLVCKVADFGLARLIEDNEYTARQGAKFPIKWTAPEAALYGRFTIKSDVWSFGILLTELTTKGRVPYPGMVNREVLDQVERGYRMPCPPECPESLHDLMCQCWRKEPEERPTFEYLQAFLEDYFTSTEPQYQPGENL

Biological target: c-Src(1-530) (Homo sapiens (Human), UniProt P12931)
Test: Kinase inhibition assay (KinaseProfiler, 33P-ATP)
Settings: ATP at Km

SMILES	IC50 [nM]
Cc1ccc(C(=O)Nc2ccc(CN3CCN(C)CC3)c(C(F)(F)F)c2)cc1C#Cc1nn([C@@H]2CCOC2)c2ncnc(N)c12 [Compound 20]	7
Cc1ccc(C(=O)Nc2ccc(CN3CCN(C)CC3)c(C(F)(F)F)c2)cc1C#Cc1nn([C@H]2CCOC2)c2ncnc(N)c12 [Compound 21]	7
